Biological target: T1, Nuclear receptor subfamily 1 group D member 1 (Homo sapiens, UniProt P20393)
T1 sequence (P20393 whole entry): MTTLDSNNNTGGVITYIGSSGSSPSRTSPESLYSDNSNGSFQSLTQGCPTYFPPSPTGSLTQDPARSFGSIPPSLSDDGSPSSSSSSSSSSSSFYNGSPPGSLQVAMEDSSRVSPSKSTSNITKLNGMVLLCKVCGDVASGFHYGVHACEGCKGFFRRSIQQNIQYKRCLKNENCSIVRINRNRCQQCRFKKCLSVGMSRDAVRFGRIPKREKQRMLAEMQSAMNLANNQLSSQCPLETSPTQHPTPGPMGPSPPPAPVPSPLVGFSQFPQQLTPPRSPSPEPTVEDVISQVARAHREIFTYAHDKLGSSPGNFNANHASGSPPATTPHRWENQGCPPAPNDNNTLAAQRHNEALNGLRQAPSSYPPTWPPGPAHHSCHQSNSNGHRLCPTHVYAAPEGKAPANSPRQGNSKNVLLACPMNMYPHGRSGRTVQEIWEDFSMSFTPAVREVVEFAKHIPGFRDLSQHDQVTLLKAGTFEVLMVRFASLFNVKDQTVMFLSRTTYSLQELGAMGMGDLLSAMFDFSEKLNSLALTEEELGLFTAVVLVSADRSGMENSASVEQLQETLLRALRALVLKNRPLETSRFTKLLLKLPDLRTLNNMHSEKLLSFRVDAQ
Assay: Agonist activity at biotinylated REV-ERBalpha (unknown origin) assessed as increase in biotinylated NCOR peptide recruitment after 1 hr by FRET assay
Procedure, shortened: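 TR-FRET: 20 nM biotinylated REV-ERBα pre-complexed with 10 nM APC-streptavidin, excess biotin added, then mixed with 20 nM biotinylated NCOR1 on 10 nM Eu-streptavidin. MOPS pH 7.5 buffer with NaF, CHAPS, BSA and 10 mM DTT. Added to compound (serial DMSO dilutions of 10 mM stocks), 1 h at RT, Eu/APC read. Data normalized to basal and minimal HTRF, fitted to a 4-parameter logistic.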

**Q.** `CCOC(=O)N1CCC(CN(Cc2ccc(Cl)cc2)Cc2ccc([N+](=O)[O-])s2)C1` (stereo unspecified) [SR9009] was tested. Which EC50 did it give?
**A.** > 50 µM

From ChEMBL document CHEMBL2380244, “Optimized chemical probes for REV-ERBα” (J Med Chem, 2013)
